Data published in US20210386826A1, “Combination for Treating Cancer” (Pfizer Inc., priority 2018, published 2021).

Test system: STAT5 phosphorylation in lymphocytes
Assay: flow cytometry of STAT5 phosphorylation in lymphocytes at various time points after administration in mice
Format: in vivo
Conditions: after administration to mice
Protocol: RSLAIL-2 is generally referred to as long-acting. For the purposes herein, the long acting nature of an IL-2Rβ biased agonist is typically determined using flow cytometry to measure STAT5 phosphorylation in lymphocytes at various time points after administration of the agonist to be evaluated in mice. As a reference, the signal is lost by around 24 hours with IL-2, but is sustained for a period greater than that for a long-acting IL-2Rβ-biased agonist.

IL-2: interleukin-2 cytokine, used as the reference standard [reference compound]
time by which STAT5 phosphorylation signal is lost: around 24 hours
